By inhibition is commonly meant the relative decrease from the control value, in per cent.

Here are results for 33 compounds from PubChem BioAssay AID1845 (The Scripps Research Institute Molecular Screening Center, 2009).

Each structure is given as a SMILES string. The list shows a part of the results, in another mix than the full data. Active and inactive are the calls of the source. Cut-off read from the data, not from the text of the source: active = inhibition above about 37%; inactive = the rest.

This experiment in a line: compounds displacing fluorescent DNA intercalator, primary screen, artefact control for HCV NS3 helicase inhibitor project, biochemical, FID fluorescence (AID 1845).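 Note: 0% = vehicle and 100% = reference compound; higher means more ethidium bromide displaced from hairpin DNA.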 The following applies: DNA fluorescent intercalator displacement, at 7.9 µM, active compounds read high.
For `COc1cc(C2NCCC3(OCCO3)C2(C)C)cc(OC)c1OC` (stereo not drawn), the inhibition was inactive: 13%. With `CCOP(=O)(Nc1cccc2ccccc12)OCC` the figure was inactive: -7.24%. With `Cc1ccc(NCCc2c([N+](=O)[O-])cc([N+](=O)[O-])cc2[N+](=O)[O-])cc1` the figure was inactive: 0.61%. Regarding `Nc1cccc2c([As](=O)(O)O)cccc12`, the inhibition was inactive: -17.7%. `CCCOP(=S)(Nc1nc(N)cc(=O)[nH]1)OCCC`: the inhibition was inactive: -15.4%. With `COc1ccc2nc(NP(=O)(c3ccccc3)c3ccccc3)sc2c1` the figure was inactive: -15.9%; with `COc1cc(I)ccc1[As](=O)(O)O`, inactive: 1.4%; with `Cc1c2c(nc3ccccc13)SC(C(Cl)Cl)C2` (stereo not drawn), inactive: -4.41%.

As for `O=C(OC1CN2CCC1CC2)C12CC3CC(CC(C3)C1)C2` (stereo not drawn), the inhibition was inactive: 25.8%. With `Cc1cc(=O)[nH]c(N[N+](=O)[O-])n1` the figure was inactive: 0.64%; with `COc1ccc(N/C(=N/P(=O)(N2CCOCC2)N2CCOCC2)N2CCOCC2)cc1`, inactive: 2.65%. With `Cc1ccc(OP(=O)(Nc2ccc([N+](=O)[O-])cn2)Oc2ccc(C)cc2)cc1` the figure was inactive: -2.63%; with `Cc1ccc2nc3c(c(C)c2c1)CC(C(Cl)Cl)S3` (stereo not drawn), inactive: -2.72%; with `C[As](=O)(O)c1cccc(C(=O)O)c1`, inactive: 1.17%. For `O=[As](O)(c1ccc(O)cc1)c1ccccc1O`, the inhibition was inactive: -5.69%.

With `CCN(CC)C(=S)SC(NC=O)C(Cl)(Cl)Cl` (stereo not drawn), the inhibition is inactive: 2.14%.

`CC(C)NC(=O)NP(=O)(Oc1ccccc1)Oc1ccccc1`: the inhibition is inactive: -1.55%.

In the case of `O=[N+]([O-])c1cc([N+](=O)[O-])c(-c2ccn[nH]2)s1`, the inhibition is inactive: 3.3%.

Consider `ClCCSc1nnc(-c2cccnc2)o1`, for which the inhibition was inactive: -0.96%. Take `CC(C)c1ccc(OP(=O)(Nc2ccccn2)Oc2ccccc2F)cc1` (stereo not drawn): the inhibition was inactive: -10.6%. As for `CCCCOc1ccc(C(=O)NCC2(N3CCCCC3)CCCCC2)cc1OC`, the figure is inactive: 1.73%; as for `Cc1cc(SC(NC(=O)c2ccccc2)C(Cl)(Cl)Cl)nc(C(C)C)n1` (stereo not drawn), inactive: -9.78%; as for `CCOC(=O)Nc1ccc([As](=O)(O)O)c(O)c1`, inactive: 4.62%. Take `Cc1cc(SC(NC=O)C(Cl)(Cl)Cl)ncn1` (stereo not drawn): the inhibition was inactive: -1.74%. For `O=P(Nc1ccccn1)(c1cccc2ccccc12)c1cccc2ccccc12`, the inhibition was inactive: -6.76%. With `O=[N+]([O-])c1ccc(Nc2ccc(Oc3ccc([N+](=O)[O-])cc3[N+](=O)[O-])cc2)c([N+](=O)[O-])c1` the figure was inactive: -4.12%.

Take `CCOC(=O)Nc1cccc([As](=O)(O)O)c1`: the inhibition is inactive: -1.22%. With `O=C(COc1ccccc1)OC1CN2CCC1CC2` (stereo not drawn) the figure was inactive: 0.98%; with `O=C(Nc1ccncc1[N+](=O)[O-])c1ccc([N+](=O)[O-])cc1[N+](=O)[O-]`, inactive: -3.62%; with `COP1(=S)c2c(C)nn(CCC#N)c2N=C(c2ccc(F)cc2)N1C` (stereo not drawn), inactive: -8.21%. Consider `CCC(C)N(CC(C)C)C(=S)SC(NC(C)=O)C(Cl)(Cl)Cl` (stereo not drawn), for which the inhibition is inactive: -0.52%. As for `O=C(OC1CN2CCC1CC2)c1cccc([N+](=O)[O-])c1` (stereo not drawn), the figure is inactive: 0.68%. As for `CCOC(=O)c1ccc(NC(=O)C(C)(CCl)SC)cc1` (stereo not drawn), the figure is inactive: -4.56%.
